For orientation: inhibition means the relative decrease from the control value, in per cent.

Molecules are shown by their SMILES. Only a part is listed here, and it is no random draw. Some tests of the compounds listed are not included; inactive here does not mean inactive elsewhere. Activity calls are given as the source filed them.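 How the source made its calls: active means inhibition above the screen-wide mean plus 3 SD (cut at about 13% in these data); inactive means the rest.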

The test system of this assay is HIV-1 integrase (with human LEDGF/p75). In words: blockers of LEDGF/p75-dependent integrase strand transfer – biochemical, TR-FRET, high throughput, primary screen (AID 743269).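 Further: signal is the Cy5 over europium emission ratio at 671 and 618 nm; 0% = plate median of compound wells.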 The conditions noted are these: TR-FRET IN-LEDGF/p75 DNA integration, Eu/Cy5; at 3.7 µM; hits give high values. A general note: In TR-FRET formats the signal depends on donor and acceptor labels being close together.
As for `O=C(OC1CN2CCC1CC2)C(CO)(c1ccccc1)c1ccccc1` (stereo unspecified), the inhibition is inactive: -2.49%.

Turning to `C=C(C)C#CC(O)(C(=O)OC1CCN(C)CC1)c1ccccc1` (stereo unspecified), the inhibition is inactive: -6.16%.

In the case of `COc1ccc(Br)c(C(=O)NCC2(N3CCCCC3)CCCCC2)c1`, the inhibition was inactive: 0.1%.

On to `CC(C)Oc1ccc(C(=O)NCC2(N(C)C)CCCCC2)cc1`, for which the inhibition was inactive: -0.48%.

Turning to `O=C(OCCN1CCCC1)C(O)(c1ccccc1)c1ccccc1`, the inhibition was inactive: 0.57%.

As to `CN(C)c1cccc(C(=O)NCC2(N(C)C)CCCCC2)c1`, the inhibition was inactive: 0.49%.

On to `CN(C)C1(CNC(=O)c2ccc(Br)cc2)CCCCC1`, for which the inhibition was inactive: -5.56%.

`COc1cc(C(=O)NCC2(N(C)C)CCCCC2)c([N+](=O)[O-])cc1OC`: the inhibition is inactive: -0.73%.

As for `COc1cccc(C(=O)NCC2(N3CCCCC3)CCCCC2)c1`, the inhibition is inactive: 1.59%.

For the compound `COc1ccc(Cl)cc1C(=O)NCC1(N(C)C)CCCCC1`, the inhibition is inactive: 5.29%.

`O=C(NCC1(N2CCCCC2)CCCCC1)c1cccc(Cl)c1`: the inhibition was inactive: -3.94%.

Regarding `Cc1ccccc1C(=O)NCC1(N2CCCCC2)CCCCC1`, the inhibition is inactive: -1.04%.

For the compound `CN(C)C1CCCC1OC(=O)C(O)(c1ccccc1)c1ccccc1` (stereo unspecified), the inhibition was inactive: 1.02%.

On to `CN(C)c1ccc(C(=O)NCC2(N(C)C)CCCCC2)cc1`, for which the inhibition was inactive: 0.67%.

As to `C=CCN1CCN(CCOC(=O)C(O)(c2ccccc2)c2ccccc2)CC1`, the inhibition was inactive: 0.14%.

On to `O=C(NCC1(N2CCCCC2)CCCCC1)c1cc(F)c(F)cc1Cl`, for which the inhibition was inactive: 2.58%.

`COc1ccc(C(=O)NCC2(N(C)C)CCCCC2)cc1`: the inhibition was inactive: -0.03%.

In the case of `Cc1cc(C(=O)NCC2(N3CCCCC3)CCCCC2)ccc1[N+](=O)[O-]`, the inhibition was inactive: -0.3%.

Turning to `CCN1CCCC(OC(=O)C2(O)c3ccccc3C=Cc3ccccc32)C1` (stereo unspecified), the inhibition was inactive: -3.46%.

Take `O=C(NCC1(N2CCCCC2)CCCCC1)c1cccc(Br)c1`: the inhibition was inactive: -0.38%.

As for `O=C(NCC1(N2CCCCC2)CCCCC1)c1cc([N+](=O)[O-])ccc1Cl`, the inhibition was inactive: 2.37%.

On to `CN1[C@@H]2CC[C@H]1CC(OC(=O)C(O)(c1ccccc1)c1ccccc1)C2` (stereo partly specified), for which the inhibition was inactive: 1.29%.

In the case of `CCN(CC)CC(C)C(C)OC(=O)C(O)(c1ccccc1)c1ccccc1` (stereo unspecified), the inhibition was inactive: -0.88%.

In the case of `COc1cc(SC)ccc1C(=O)NCC1(N(C)C)CCCCC1`, the inhibition is inactive: -3.89%.

Regarding `CC(C)N1C(=O)CC2(CCN(CCOC(=O)C(O)(c3ccccc3)c3ccccc3)CC2)C1=O`, the inhibition is inactive: -0.94%.

As to `Cc1ccc(C(=O)NCC2(N3CCCCC3)CCCCC2)cc1`, the inhibition is inactive: -0.03%.

Values taken from PubChem BioAssay AID743269 (The Scripps Research Institute Molecular Screening Center, 2014).
